Rows were chosen to be rich in hits. Some 2.8% of all compounds tested hit in one or more screens of this group.
esBAF inh – inhibitors of esBAF chromatin remodeling in mouse ES cells | actives 2% (n = 350,000) | Bmi1-luciferase knock-in reporter, 24 h; 100% = twice the neutral-well signal | reporter increase, % at 12.5 µM | AID 602393; in the data active means activation above about 40%;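 further: 0% = median of the plate's neutral control wells and 100% = double that signal; a rise in the Bmi1 reporter signal indicates esBAF inhibition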
E-selectin induc – E-selectin induction on HUVECs; P16581; HUVEC E-selectin immunofluorescence imaging; normalized: neutral wells 0, TNF-alpha wells 100; activation, % at 7.58 µM; actives 0.37% (n = 260,000);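 active means mean E-selectin-positive cell signal at least 10% of the positive control, reached in at least 60% of replicates, without over 20% cell loss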
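Test system – human umbilical vein endothelial cells (HUVEC), E-selectin induction · Input – 3,000 HUVEC seeded per well · Buffer or medium – EGM-2, gelatin · Compound dosing – single-point compound dose · Detection – immunofluorescence imaging · Measure – percent E-selectin-positive cells · Controls – TNF-alpha high, DMSO low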
PglD inh – blocks C. jejuni PglD acetyltransferase activity; purified PglD enzyme, DTNB colorimetric CoA detection; AID 602405; inhibition, % at 12.5 µM; actives 0.098% (n = 360,000); in the data active means inhibition above about 16%, passing the limit was not always enough
Yeast UUG start – alters start codon recognition fidelity in yeast | S. cerevisiae UUG-firefly luciferase reporter, luminescence/redox ratio | activity score, % at 18.7 µM | 350,000 compounds, 0.13% hits | AID 602363;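 active = replicate mean at a twofold rise or more, about +100% in these data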;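 note: firefly luciferase made from a UUG start codon reports start codon fidelity; reporter light over untreated wells divided by growth signal over untreated wells; some hits fall short of that in this replicate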
PGC1a acetyl inh – modulators of PGC1a acetylation | U2OS PGC1a acetylation, AlphaScreen anti-acetyl-lysine; with virally co-expressed GCN5 acetyltransferase | inhibition, % at 15.6 µM | actives 0.17% (n = 350,000) | AID 651687;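 active means every replicate shows inhibition of at least 40%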;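 further: 0% = neutral control wells and 100% = positive control wells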
C2C12 statin – protects C2C12 myotubes from simvastatin toxicity. AID 602340. rescue of ATP level, % at 7.49 µM. ATP luminescence, 48 h; scaled: DMSO 0, geranylgeraniol control 100. actives 0.78% (n = 330,000);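 active means mean ATP rescue above about 67%, or every replicate alone reaching that limit, limit read from the data, passing the limit was not always enough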;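 further: myotubes were challenged with 10 µM simvastatin during compound exposure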
Numbers without * were called inactive; · = no result given.

Preview:
SMILES	esBAF inh	E-selectin induc	PglD inh	Yeast UUG start	PGC1a acetyl inh	C2C12 statin
CN(C)C(=O)CSc1nc(-c2ccccc2)nc2c1CCCC2	-7	·	-4	-12	-25	77*
CCC1NC(=S)N(C2CCCCC2)C1=O (stereo not drawn)	-12	·	0	-29	55*	2
CC(C)CC1NC(=S)N(C2CCCCC2)C1=O (stereo not drawn)	-8	·	8	-7	12	-11
Cc1ccccc1-c1ccc([C@H]2[C@H]3CN(C(=O)Nc4ccc(F)cc4)CC(=O)N3[C@H]2CO)cc1	·	0	·	·	11	·
CCCc1nc2ccc(C)cn2c1Cc1ccc(C)cc1	26	·	2	8	-12	-6
CCCc1nc2ccc(C)cn2c1Cc1ccccc1	51*	·	8	73	-34	6

The listing (from the top)
SMILES	esBAF inh	E-selectin induc	PglD inh	Yeast UUG start	PGC1a acetyl inh	C2C12 statin
CN(C)C(=O)CSc1nc(-c2ccccc2)nc2c1CCCC2	-7	·	-4	-12	-25	77*
CCC1NC(=S)N(C2CCCCC2)C1=O (stereo not drawn)	-12	·	0	-29	55*	2
CC(C)CC1NC(=S)N(C2CCCCC2)C1=O (stereo not drawn)	-8	·	8	-7	12	-11
Cc1ccccc1-c1ccc([C@H]2[C@H]3CN(C(=O)Nc4ccc(F)cc4)CC(=O)N3[C@H]2CO)cc1	·	0	·	·	11	·
CCCc1nc2ccc(C)cn2c1Cc1ccc(C)cc1	26	·	2	8	-12	-6
CCCc1nc2ccc(C)cn2c1Cc1ccccc1	51*	·	8	73	-34	6
COc1ccccc1-c1c(C)nn2c(N3CCC4(CC3)OCCO4)cc(C)nc12	5	·	4	-15	-13	85*
COc1ccccc1-c1c(C)nn2c(N3CCC(C)CC3)cc(C)nc12	5	1	·	·	-2	-13
O=C(O)c1c(C(=O)O)c(-c2ccc(Cl)c(Cl)c2)n2c1CSC2	-5	58*	-3	-4	7	-4
O=C1c2ccccc2/C(=C\c2ccc3[nH]ccc3c2)N1c1ccccc1	45*	0	4	-28	-21	-6
COc1ccc(NC(=O)Nc2ccc3c(c2)CC(=O)N([C@H](C)CO)C[C@@H](C)[C@H](CN(C)S(=O)(=O)c2cn(C)cn2)O3)cc1	2	·	-2	-3	3	-26
COc1cc(C(=O)NCC(=O)NCC2COc3ccccc3O2)cc(OC)c1OC (stereo not drawn)	-5	0	0	-2	·	-2
COc1cc(C(=O)NCC(=O)NNC(=O)C2COc3ccccc3O2)cc(OC)c1OC (stereo not drawn)	6	152*	-3	-13	9	1
Cc1cccc(COc2ccc(/C=C3/C(=O)N(C)C(=S)N3C)cc2)c1	7	·	-1	-10	71*	-37
CC(C)CC(NC(=O)c1ccc(C#CC(C)(C)O)s1)C(=O)O (stereo not drawn)	·	·	·	·	2	·
CC(C)(O)C#Cc1ccc(C(=O)NC(CCCNC(N)=O)C(=O)O)s1 (stereo not drawn)	4	·	6	-14	82*	5
CC(=O)Nc1ccc(N=Nc2ccccc2)cc1[N+](=O)[O-]	56*	2	-7	-32	3	-2
COc1ccc(CNC(=O)C[C@@H]2CC[C@H]3[C@@H](COc4ccc(NC(=O)C5CC5)cc4C(=O)N3C)O2)cc1	-6	0	2	25	2	8
c1ccc(-c2cccc(-c3ccccc3)n2)cc1	44*	1	-1	-2	3	-1
c1ccc(-c2ccc3ccccc3n2)cc1	37	·	2	-9	8	12
COCCOC(=O)N1C(=O)[C@@]2(c3cc(C#Cc4ccc(OC)cc4)ccc31)[C@H](C(=O)NC[C@H](O)c1ccccc1)[C@H]1C(=O)O[C@H](c3ccccc3)[C@H](c3ccccc3)N1[C@@H]2c1ccc(O)cc1	·	·	3	-7	-9	·
O=c1sc2ccccc2n1CCOc1ccccc1	45*	·	5	-13	-7	4
Cn1c(=O)n(CCOc2ccc([N+](=O)[O-])cc2)c2ccccc21	·	3	-11	-17	-8	·
Cc1ccc(C)c(OCCn2nnc3ccccc32)c1	18	2	-3	-20	8	3
Cn1c(=O)n(CCOc2ccccc2Cl)c2ccccc21	78*	·	0	2	-15	16
Clc1ccccc1OCCn1nnc2ccccc21	63*	0	-9	-13	·	23
Cc1ccc(OCCn2c(=O)n(C)c3ccccc32)cc1	85*	·	·	·	16	2
Cn1c(=O)n(CCOc2ccc(Cl)cc2Cl)c2ccccc21	·	·	-4	-9	-10	·
COc1ccc2c3c(n(C)c2c1)[C@@H](CO)N(C(=O)NC1CCCC1)CC31CCN(C)CC1	·	0	·	·	·	·
O=S(=O)(c1cccc(F)c1)N1[C@@H]2CNC[C@H]1C2c1ccc(-c2cccc(F)c2)cc1 (stereo partly drawn)	·	1	·	·	4	·
Cc1noc(C)c1NC(=O)N(C)C[C@H]1OCCCC[C@@H](C)Oc2ccc(NC(=O)c3ccncc3)cc2C(=O)N([C@H](C)CO)C[C@@H]1C	1	0	-2	0	-3	-20
CS(=O)(=O)Nc1ccc2c(c1)[C@@H]1C[C@@H](CC(=O)NCc3ccc(-c4ccccc4)cc3)O[C@H](CO)[C@@H]1O2	18	0	-5	3	-9	-9
CCCN(C)C[C@H]1Oc2ncc(-c3cccc(C#N)c3)cc2C(=O)N([C@H](C)CO)C[C@@H]1C	1	0	1	-6	5	10
O=CN(/C=C1\Sc2ccccc2C1=O)Cc1ccccc1	51*	·	-5	-39	·	6
CCCC(=O)Nc1ccc2c(c1)C(=O)N(C)C[C@@H](OC)[C@H](C)CN(Cc1ccc(F)cc1)[C@H](C)CO2	-1	0	·	·	-56	4
C[C@H](CO)N1C[C@H](C)[C@H](CN(C)C(=O)NC2CCCC2)Oc2ncc(-c3ccncc3)cc2C1=O	-2	0	·	·	2	-2
COc1ccc(Cc2nc3ccc(C(=O)N(C)CCn4ccnc4)cc3o2)cc1OC	48*	·	2	-9	-13	-2
COc1ccc(Cc2nc3ccc(C(=O)N4C[C@@H](C)O[C@@H](C)C4)cc3o2)cc1OC	69*	·	0	-14	4	0
COc1ccc(Cc2nc3ccc(C(=O)N4CCOCC4)cc3o2)cc1	78*	0	3	9	·	-4
CC(C)[C@@H](C)NC(=O)N(C)C[C@H]1OCc2ccccc2-c2c(n(C)c3ccccc23)C(=O)N([C@H](C)CO)C[C@@H]1C	9	0	3	2	-5	·
CN1CCN(C(=O)C[C@@H]2C[C@H]3c4cc(NC(=O)NC5CCCC5)ccc4O[C@H]3[C@@H](CO)O2)CC1	4	0	1	-17	-5	-6
COC(=O)C[C@@H]1C[C@H]2c3cc(NS(=O)(=O)c4ccc(OC)cc4)ccc3O[C@H]2[C@H](CO)O1	5	0	-2	-7	-2	3
O=C(Cc1cccnc1)N1CC[C@H]2[C@H](CO)Nc3ccc(C#Cc4cccc(F)c4)cc3[C@H]21	·	1	·	·	5	·
COc1ccnc(CSC(N)=Nc2ccc(F)cc2)c1	56*	·	7	-14	3	-38
COc1cccc(N=C(N)N=C(N)N)c1	-2	0	4	-12	-1	0
Cc1cnc(NC(=O)c2nn(C)cc2[N+](=O)[O-])s1	·	·	·	·	-131	·
Cc1ccc(-c2nc(NC(=O)c3nn(C)cc3[N+](=O)[O-])sc2C)cc1C	-75	·	-3	-9	91*	-325
